According to paper PMC6737539 (Journal of medicinal chemistry, 2019):

What was measured:
[1] = Liver microsomal metabolic stability, human; assay type: in vitro ADME; conditions: 10 μM, 30 min
[2] = HFD-fed adi-hRBP4 mice, 20 mg/kg per day

| Microsomal Stability (% remaining) HLM [1] [% remaining] | Structure (SMILES) | food intake (consumption of the HFD chow) [2] |
| --- | --- | --- |
| 3.0 | O=C(O)c1ccccc1NC(=O)N1CCC(c2ccccc2C(F)(F)F)CC1 [Compound 3, reference compound] |  |
|  | N#Cc1ccc2nnc(C(=O)N3CCC(c4cccc(F)c4C(F)(F)F)CC3)n2c1 [Compound 59, 3-(4-(3-Fluoro-2-(trifluoromethyl)phenyl)piperidine-1-carbonyl)-[1,2,4]triazolo[4,3-a]pyridine-6-carbonitrile] | did not alter consumption of the HFD chow |
